Like-named read-outs stand apart in the source and are kept apart here.
Legend:
NIH 3T3 cells [1] = conditions: cited from earlier work
NIH 3T3 cells [2] = conditions: lactose-free

CSCC[C@H](NC(=O)[C@H](CC(C)C)NC(=O)[C@H](Cc1c[nH]c2ccccc12)NC(=O)[C@H](CCC(N)=O)NC(=O)[C@@H](NC(=O)[C@H](Cc1ccccc1)NC(=O)[C@H](CC(=O)O)NC(=O)[C@H](CCC(N)=O)NC(=O)[C@H](C)NC(=O)[C@H](CCCN=C(N)N)NC(=O)[C@H](CCCN=C(N)N)NC(=O)[C@H](CO)NC(=O)[C@H](CC(=O)O)NC(=O)[C@H](CC(C)C)NC(=O)[C@H](Cc1ccc(O)cc1)NC(=O)[C@H](CCCCN)NC(=O)[C@H](CO)NC(=O)[C@H](Cc1ccc(O)cc1)NC(=O)[C@H](CC(=O)O)NC(=O)[C@H](CO)NC(=O)[C@@H](NC(=O)[C@H](Cc1ccccc1)NC(=O)[C@@H](NC(=O)CNC(=O)[C@H](CCC(N)=O)NC(=O)[C@H](CO)NC(=O)[C@@H](N)Cc1c[nH]cn1)[C@@H](C)O)[C@@H](C)O)C(C)C)C(=O)N[C@@H](CC(N)=O)C(=O)N[C@H](C(=O)O)[C@@H](C)O [native glucagon, glucagon]
cytotoxicity (Onoue and colleagues) (NIH 3T3 cells [1]; 5 mg/mL, no aging): not cytotoxic
cytotoxicity (Onoue and colleagues) (NIH 3T3 cells [1]; aged at 5 mg/mL, aging for only 1 day): definite cytotoxicity
cytotoxicity (NIH 3T3 cells [2]; aged 5 days, Tris pH 8.5): mild to moderate cytotoxicity
cytotoxicity (NIH 3T3 cells [2]; aged 5 days, Tris pH 8.5, listed as lactose-free glucagon): some evidence of toxicity
cytotoxicity (NIH 3T3 cells [2]; no aging, any concentration, pH 8.5 or 10): no significant cytotoxicity
